Experimental findings from patent US20050119253A1, “Method of treating mental disorders using of D4 and 5-HT2A antagonists, inverse agonists or partial agonists” (priority 2003, published 2005) are described below.

Sequences of proteins named here, by UniProt entry; tags and fusion partners are left off. Residues count along the entry.
UniProt P28566, whole entry, species assumed: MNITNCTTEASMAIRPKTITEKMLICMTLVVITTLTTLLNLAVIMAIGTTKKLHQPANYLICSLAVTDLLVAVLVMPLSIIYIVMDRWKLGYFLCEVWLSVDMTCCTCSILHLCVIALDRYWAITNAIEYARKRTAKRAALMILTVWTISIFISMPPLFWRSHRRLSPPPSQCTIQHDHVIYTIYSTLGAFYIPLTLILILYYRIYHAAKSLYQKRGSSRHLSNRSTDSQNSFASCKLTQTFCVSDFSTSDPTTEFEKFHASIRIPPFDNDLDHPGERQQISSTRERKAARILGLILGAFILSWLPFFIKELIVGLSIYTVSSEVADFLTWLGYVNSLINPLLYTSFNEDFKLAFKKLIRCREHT
UniProt P08913, whole entry: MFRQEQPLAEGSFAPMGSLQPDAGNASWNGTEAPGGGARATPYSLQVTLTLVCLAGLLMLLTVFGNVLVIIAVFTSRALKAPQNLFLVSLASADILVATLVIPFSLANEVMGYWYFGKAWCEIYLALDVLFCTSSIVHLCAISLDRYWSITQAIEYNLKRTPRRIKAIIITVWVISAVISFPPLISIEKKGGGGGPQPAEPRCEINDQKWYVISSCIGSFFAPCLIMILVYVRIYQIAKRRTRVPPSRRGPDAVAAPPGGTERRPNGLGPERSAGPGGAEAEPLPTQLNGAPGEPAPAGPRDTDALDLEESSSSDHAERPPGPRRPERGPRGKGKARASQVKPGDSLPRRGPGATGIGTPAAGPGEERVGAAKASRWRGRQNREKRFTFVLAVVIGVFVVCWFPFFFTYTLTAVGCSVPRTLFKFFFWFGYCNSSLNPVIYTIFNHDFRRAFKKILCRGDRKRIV
UniProt P18825, whole entry: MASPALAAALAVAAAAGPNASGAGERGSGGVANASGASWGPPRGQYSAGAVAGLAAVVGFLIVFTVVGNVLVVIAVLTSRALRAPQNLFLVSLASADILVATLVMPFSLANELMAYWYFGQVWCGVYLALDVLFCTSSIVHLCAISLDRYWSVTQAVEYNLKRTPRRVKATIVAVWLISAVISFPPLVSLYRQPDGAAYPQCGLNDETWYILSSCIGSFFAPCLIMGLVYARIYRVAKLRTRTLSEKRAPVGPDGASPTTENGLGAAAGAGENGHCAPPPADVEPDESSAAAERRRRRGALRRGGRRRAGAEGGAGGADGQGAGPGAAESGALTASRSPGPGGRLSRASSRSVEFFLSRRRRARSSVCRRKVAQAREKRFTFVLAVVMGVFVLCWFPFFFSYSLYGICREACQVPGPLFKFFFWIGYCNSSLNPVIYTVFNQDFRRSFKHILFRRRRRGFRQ
UniProt P35367, whole entry: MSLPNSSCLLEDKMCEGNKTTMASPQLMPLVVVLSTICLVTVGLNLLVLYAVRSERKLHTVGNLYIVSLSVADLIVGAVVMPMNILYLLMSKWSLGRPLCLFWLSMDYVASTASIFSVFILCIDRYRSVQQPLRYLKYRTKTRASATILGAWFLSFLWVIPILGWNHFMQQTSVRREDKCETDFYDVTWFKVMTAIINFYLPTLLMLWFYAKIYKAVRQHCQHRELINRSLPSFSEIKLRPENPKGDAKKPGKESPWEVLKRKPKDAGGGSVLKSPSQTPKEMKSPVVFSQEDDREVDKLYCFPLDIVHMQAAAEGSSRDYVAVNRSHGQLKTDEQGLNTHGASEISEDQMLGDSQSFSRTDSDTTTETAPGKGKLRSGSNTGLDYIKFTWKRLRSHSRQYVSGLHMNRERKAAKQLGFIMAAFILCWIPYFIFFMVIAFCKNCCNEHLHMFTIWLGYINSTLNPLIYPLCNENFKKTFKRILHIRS
UniProt P28222, whole entry, species assumed: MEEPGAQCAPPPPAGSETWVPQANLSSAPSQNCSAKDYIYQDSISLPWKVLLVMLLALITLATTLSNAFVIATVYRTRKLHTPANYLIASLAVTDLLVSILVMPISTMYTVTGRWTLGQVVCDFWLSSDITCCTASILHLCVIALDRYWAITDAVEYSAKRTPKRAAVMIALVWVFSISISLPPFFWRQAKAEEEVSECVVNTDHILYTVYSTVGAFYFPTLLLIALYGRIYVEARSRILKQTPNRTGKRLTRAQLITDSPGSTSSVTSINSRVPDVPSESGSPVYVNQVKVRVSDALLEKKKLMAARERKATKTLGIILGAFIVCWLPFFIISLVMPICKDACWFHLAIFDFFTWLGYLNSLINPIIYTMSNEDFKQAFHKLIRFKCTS
UniProt P28221, whole entry, species assumed: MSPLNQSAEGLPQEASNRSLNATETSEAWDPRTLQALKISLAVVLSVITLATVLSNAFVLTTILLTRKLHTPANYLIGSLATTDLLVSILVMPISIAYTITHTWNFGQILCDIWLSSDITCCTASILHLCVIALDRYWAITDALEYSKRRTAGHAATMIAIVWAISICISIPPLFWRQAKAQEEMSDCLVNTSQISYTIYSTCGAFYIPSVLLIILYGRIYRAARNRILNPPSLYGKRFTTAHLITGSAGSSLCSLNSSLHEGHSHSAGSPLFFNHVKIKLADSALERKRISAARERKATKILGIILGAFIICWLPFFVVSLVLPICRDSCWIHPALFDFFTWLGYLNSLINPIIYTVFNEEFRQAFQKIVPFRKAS
UniProt P21728, whole entry: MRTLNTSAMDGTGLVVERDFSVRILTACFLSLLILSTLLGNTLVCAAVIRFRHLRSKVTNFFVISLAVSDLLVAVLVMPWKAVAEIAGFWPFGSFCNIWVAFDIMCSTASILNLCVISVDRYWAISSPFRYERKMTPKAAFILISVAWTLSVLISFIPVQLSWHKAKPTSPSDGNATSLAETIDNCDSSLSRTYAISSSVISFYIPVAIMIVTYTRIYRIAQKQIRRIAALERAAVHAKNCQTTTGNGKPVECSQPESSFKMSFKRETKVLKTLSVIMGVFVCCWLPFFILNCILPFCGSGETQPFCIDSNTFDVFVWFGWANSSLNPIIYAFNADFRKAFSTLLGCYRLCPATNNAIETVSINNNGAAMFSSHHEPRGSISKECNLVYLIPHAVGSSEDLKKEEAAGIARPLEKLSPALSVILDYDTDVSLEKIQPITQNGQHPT
UniProt P14416, whole entry: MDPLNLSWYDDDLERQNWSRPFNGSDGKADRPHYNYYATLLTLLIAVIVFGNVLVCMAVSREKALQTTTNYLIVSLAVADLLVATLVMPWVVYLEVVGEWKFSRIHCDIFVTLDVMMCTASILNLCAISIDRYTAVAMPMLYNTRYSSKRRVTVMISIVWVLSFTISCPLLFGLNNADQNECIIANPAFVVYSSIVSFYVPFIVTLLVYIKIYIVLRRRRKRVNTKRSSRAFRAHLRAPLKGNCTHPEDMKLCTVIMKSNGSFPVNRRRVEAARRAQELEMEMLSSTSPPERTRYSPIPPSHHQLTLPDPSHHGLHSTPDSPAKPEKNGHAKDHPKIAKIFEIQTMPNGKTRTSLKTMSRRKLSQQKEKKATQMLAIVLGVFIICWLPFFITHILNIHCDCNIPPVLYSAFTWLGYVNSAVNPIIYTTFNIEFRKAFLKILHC
UniProt P08908, whole entry, species assumed: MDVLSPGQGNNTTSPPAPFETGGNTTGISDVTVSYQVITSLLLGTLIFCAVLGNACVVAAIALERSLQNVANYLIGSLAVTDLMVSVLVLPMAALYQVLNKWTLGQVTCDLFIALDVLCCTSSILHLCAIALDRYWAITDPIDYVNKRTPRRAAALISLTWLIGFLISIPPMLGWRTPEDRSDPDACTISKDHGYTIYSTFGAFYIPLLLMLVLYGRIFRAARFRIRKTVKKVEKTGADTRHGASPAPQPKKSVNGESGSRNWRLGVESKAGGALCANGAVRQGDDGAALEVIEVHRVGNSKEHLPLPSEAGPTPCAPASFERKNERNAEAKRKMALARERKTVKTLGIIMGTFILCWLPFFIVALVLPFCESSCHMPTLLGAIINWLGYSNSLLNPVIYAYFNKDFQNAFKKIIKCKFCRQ
UniProt P28335, 33-458, species assumed: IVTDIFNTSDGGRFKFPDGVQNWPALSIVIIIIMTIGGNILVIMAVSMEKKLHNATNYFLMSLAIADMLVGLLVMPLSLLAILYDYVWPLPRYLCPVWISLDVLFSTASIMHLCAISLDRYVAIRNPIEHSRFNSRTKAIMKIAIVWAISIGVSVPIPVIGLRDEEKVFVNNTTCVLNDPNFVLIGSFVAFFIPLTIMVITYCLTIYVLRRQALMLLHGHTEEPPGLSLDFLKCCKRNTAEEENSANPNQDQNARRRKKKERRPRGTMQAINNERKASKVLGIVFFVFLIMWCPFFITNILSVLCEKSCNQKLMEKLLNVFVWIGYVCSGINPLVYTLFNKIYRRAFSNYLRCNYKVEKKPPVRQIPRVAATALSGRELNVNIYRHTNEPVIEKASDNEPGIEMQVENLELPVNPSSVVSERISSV
UniProt P07550, whole entry: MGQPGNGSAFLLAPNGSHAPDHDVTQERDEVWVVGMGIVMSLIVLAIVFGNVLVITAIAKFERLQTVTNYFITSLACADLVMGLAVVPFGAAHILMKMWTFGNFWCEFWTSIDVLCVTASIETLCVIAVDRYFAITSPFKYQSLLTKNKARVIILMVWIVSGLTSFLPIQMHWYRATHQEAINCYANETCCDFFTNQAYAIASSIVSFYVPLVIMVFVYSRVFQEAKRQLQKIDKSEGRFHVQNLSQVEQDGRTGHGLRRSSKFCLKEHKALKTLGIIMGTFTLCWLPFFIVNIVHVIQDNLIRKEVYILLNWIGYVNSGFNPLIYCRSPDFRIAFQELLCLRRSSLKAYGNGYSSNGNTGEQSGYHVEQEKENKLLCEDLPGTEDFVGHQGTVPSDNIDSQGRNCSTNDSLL
UniProt P18089, whole entry: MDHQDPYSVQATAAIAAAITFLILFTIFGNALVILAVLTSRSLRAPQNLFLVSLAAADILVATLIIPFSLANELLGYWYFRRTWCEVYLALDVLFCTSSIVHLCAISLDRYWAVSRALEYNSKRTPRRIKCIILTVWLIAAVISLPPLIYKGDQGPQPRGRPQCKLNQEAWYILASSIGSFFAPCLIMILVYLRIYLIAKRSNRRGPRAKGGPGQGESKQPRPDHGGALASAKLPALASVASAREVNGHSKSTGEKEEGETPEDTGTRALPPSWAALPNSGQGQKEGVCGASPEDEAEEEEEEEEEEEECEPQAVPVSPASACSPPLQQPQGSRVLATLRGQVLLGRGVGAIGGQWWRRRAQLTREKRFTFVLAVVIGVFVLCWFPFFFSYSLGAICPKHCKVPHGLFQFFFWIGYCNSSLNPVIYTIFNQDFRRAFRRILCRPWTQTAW

Experiment [1] deals with 5HT1E (Homo sapiens, UniProt P28566). As to the kind of experiment: pKi of test compounds, 5HT1E receptor. It counts as binding.
In experiment [2] the target is T1, 5HT1F (Homo sapiens, UniProt P30939).
T1 sequence (P30939 1-366): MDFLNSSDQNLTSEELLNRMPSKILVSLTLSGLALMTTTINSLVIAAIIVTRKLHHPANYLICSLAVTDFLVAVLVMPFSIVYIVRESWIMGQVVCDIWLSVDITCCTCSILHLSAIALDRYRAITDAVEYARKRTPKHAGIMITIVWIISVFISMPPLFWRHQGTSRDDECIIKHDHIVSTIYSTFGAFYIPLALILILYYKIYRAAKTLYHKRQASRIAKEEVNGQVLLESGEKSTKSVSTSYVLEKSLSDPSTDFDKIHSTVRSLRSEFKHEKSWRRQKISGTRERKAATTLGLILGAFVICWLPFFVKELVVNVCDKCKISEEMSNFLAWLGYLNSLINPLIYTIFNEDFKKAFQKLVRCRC
As to the kind of experiment: pKi of test compounds, 5HT1F receptor. Format: binding.

Experiment [3] addresses Alpha2A (Homo sapiens, UniProt P08913). As to the kind of experiment: pKi of test compounds, adrenergic receptor Alpha2A. It counts as binding.
Experiment [4] addresses Alpha2C (Homo sapiens, UniProt P18825). Briefly: pKi of test compounds, adrenergic receptor Alpha2C. It counts as binding.
Experiment [5] concerns the target H1 (Homo sapiens, UniProt P35367). As to the kind of experiment: pKi of test compounds, histamine receptor H1.
The target in experiment [6] is 5HT1B (Homo sapiens, UniProt P28222). Briefly: pKi of test compounds, 5HT1B receptor. It counts as binding.
For experiment [7], the target named is 5HT1D (Homo sapiens, UniProt P28221). Briefly: pKi of test compounds, 5HT1D receptor. It counts as binding.
Experiment [8] has as its target D1 (Homo sapiens, UniProt P21728). Briefly: pKi of test compounds, D1 receptor. Format: binding.
Experiment [9] concerns the target T2, Alpha1A (Homo sapiens, UniProt P35348).
T2 sequence (P35348 1-466): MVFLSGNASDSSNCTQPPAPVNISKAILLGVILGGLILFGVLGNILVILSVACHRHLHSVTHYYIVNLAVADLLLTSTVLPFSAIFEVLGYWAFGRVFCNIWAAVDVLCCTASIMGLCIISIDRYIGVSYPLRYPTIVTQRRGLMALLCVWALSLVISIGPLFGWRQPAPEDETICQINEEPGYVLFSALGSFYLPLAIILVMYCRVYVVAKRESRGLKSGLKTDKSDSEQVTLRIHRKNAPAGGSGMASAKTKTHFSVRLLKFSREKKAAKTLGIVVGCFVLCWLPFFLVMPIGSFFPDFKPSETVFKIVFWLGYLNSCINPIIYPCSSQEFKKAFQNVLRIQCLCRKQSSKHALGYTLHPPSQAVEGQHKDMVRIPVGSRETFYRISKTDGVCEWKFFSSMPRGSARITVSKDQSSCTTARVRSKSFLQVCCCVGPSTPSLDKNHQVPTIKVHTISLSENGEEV
Briefly: pKi of test compounds, adrenergic receptor Alpha1A. It counts as binding.

Experiment [10] deals with D2 (Homo sapiens, UniProt P14416). As to the kind of experiment: pKi of test compounds, D2 receptor.
Experiment [11] has as its target 5HT1A (Homo sapiens, UniProt P08908). Briefly: pKi of test compounds, 5HT1A receptor. Format: binding.
Experiment [12] addresses 5HT2C (Homo sapiens, UniProt P28335). Briefly: pKi of test compounds, 5HT2C receptor. Format: binding.
Experiment [13] deals with Beta2 (Homo sapiens, UniProt P07550). As to the kind of experiment: pKi of test compounds, adrenergic receptor Beta2. It counts as binding.
Experiment [14] concerns the target Alpha2B (Homo sapiens, UniProt P18089). Briefly: pKi of test compounds, adrenergic receptor Alpha2B.

Where two headings read alike, the source gives them in different places.

In the case of `O=C(CCCN1CCC(O)(c2ccc(Cl)cc2)CC1)c1ccc(F)cc1` [Haloperidol], the Ki in experiment [1] was above 1000 nM.

Consider `Cc1nc2n(c(=O)c1CCN1CCC(c3noc4cc(F)ccc34)CC1)CCCC2` [Risperidone], for which the Ki in experiment [1] and in [2] was above 1000 nM each time.

Turning to `CN(C)CCOC1=Cc2ccccc2Sc2ccc(Cl)cc21` [Zotepine], the Ki in experiment [3] is 100 to 1000 nM; in experiment [4], 100 to 1000 nM; in experiment [5], below 1 nM.

Consider `Fc1cccc2c1O[C@H]1CNC[C@@H]1O2` [Fluparoxan], for which the Ki in experiment [6] (read-out: pKi 5HT1B (converted)) and in [7] was above 1000 nM throughout.

As for `O=C1CC2(CCCC2)CC(=O)N1CCCCN1CCN(c2nsc3ccccc23)CC1` [Tiospirone], the Ki in experiment [8] lay within 10 to 100 nM.

In experiment [9], `Cc1cc2c(s1)Nc1ccccc1N=C2N1CCN(C)CC1` [Olanzapine] gave a Ki of 10 to 100 nM.

`O=C1Cc2cc(CCN3CCN(c4nsc5ccccc45)CC3)c(Cl)cc2N1` [Ziprasidone] gave a Ki in [3] of 100 to 1000 nM.

In experiment [10], `CCN1CCC[C@H]1CNC(=O)c1c(O)c(Cl)cc(Cl)c1OC` [Raciopride] registered a Ki of 1 to 10 nM.

Turning to `COC(=O)[C@@H]1[C@H]2C[C@H]3c4[nH]c5ccccc5c4CCN3C[C@@H]2CC[C@@H]1O` [Yohimbine], the Ki is 10 to 100 nM in experiment [11], 100 to 1000 nM in [6] and above 1000 nM in [12].

As for `O=C1NCCN1CCN1CCC(c2cn(-c3ccc(F)cc3)c3ccc(Cl)cc23)CC1` [Sertindole], the Ki is 100 to 1000 nM in experiment [3], above 1000 nM in experiment [13] and 100 to 1000 nM in experiment [14].

For `OCCOCCN1CCN(C2=Nc3ccccc3Sc3ccccc32)CC1` [Seroquel], the Ki in [7] and in experiment [2] was above 1000 nM throughout.
